# AlphaSeq binding of Ab-14 heavy chain variants to a spike HR2 peptide

Values reported by Engelhart et al. 2022, doi:10.1038/s41597-022-01779-4 (FLAb copy).

Target peptide (SARS-CoV-2 spike, HR2 region): PDVDLGDISGINAS

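In library AAYL49, one, two or three CDR residues were substituted; doubles and triples were drawn at random. Affinity was read by AlphaSeq, a pooled yeast mating assay with surface-displayed partners. The frequency of each diploid, read from paired DNA barcodes, reflects how well the two displayed proteins bind. The ratio of observed to expected reads was calibrated, replicate by replicate, on BCL2-family standards whose Kd was known from biolayer interferometry. There are three technical replicates.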

Parent: Ab-14, a human scFv built as VH, a 15-residue (Gly4Ser)3 linker, VL. Only the CDRs of the heavy chain vary.
VH: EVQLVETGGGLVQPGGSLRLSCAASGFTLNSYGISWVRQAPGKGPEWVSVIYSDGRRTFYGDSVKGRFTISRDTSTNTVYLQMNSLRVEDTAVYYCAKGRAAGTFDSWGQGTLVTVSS
VL: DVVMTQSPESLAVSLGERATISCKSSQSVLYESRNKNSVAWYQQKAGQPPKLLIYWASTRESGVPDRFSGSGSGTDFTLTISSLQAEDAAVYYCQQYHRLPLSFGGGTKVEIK

Sequences are complete VH domains. This list gathers variants with a substitution at D62 (VH, numbered from residue 1). The Kd shown is the geometric mean over detected replicates; a lower Kd is a better binder. A pair that was not seen in any replicate is written "nd"; this usually means weak binding, but a binder can also be missed. For reference, the parent read 4.4 nM as the reference entry and 13 µM (one replicate of three) as a member of this library. Background: pairings of library AAYL49 with three empty control strains gave a value in 15% of cases (median 11 µM, 5th percentile 680 nM). Values in that range, when seen in few replicates, are hard to tell from nonspecific mating. The control count says in how many pairings with the empty strains this scFv gave a signal.

For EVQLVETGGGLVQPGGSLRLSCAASGFTLNEYGISWVRQAPGKGPEWVSVIYSDGRRTFYGHSVKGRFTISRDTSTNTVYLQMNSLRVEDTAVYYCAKGRAAGTLDSWGQGTLVTVSS, the assay gave 18 nM (3 of 3 replicates; controls 2 of 9). The variant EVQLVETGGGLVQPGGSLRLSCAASGFTLNSYGISWVRQAPGKGPEWVSVIKSDGRRTFYGRSVKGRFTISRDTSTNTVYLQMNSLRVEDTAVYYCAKGRAANTFDSWGQGTLVTVSS gave nd (0 of 3 replicates; controls 0 of 9). The variant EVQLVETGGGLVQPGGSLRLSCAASGFTLNSYAISWVRQAPGKGPEWVSVIYSDGRRTFYGISVKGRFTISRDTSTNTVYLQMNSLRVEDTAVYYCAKGREAGTFDSWGQGTLVTVSS showed nd (0 of 3 replicates; controls 0 of 9). The variant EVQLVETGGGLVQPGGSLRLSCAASGDTLNSYGISWVRQAPGKGPEWVSVIYSFGRRTFYGKSVKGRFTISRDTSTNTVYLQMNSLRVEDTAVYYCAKGRAAGTFDSWGQGTLVTVSS gave 1.9 µM (1 of 3 replicates; controls 1 of 9). With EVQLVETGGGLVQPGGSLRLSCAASGFTLNSYGISWVRQAPGKGPEWVSVIYSHGRRTFYGKSVKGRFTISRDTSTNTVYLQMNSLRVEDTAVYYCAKGAAAGTFDSWGQGTLVTVSS the result was nd (0 of 3 replicates; controls 0 of 9). With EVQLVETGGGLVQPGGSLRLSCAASGFTLNSYGISWVRQAPGKGPEWVSVIYSDGRRTFYGCSEKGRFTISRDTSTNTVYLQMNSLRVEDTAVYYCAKGRAAGTFHSWGQGTLVTVSS the result was nd (0 of 3 replicates; controls 0 of 9). With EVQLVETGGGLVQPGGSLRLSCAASGFTLNSYGISWVRQAPGKGPEWVSVIYSDGRRTFYGFSVKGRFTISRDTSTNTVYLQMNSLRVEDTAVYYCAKGRAAFTFDRWGQGTLVTVSS the result was 8.4 µM (1 of 3 replicates; controls 2 of 9). For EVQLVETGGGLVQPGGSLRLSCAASGFTLNSYGISWVRQAPGKGPEWVSVIYSDGRRTQYGISVQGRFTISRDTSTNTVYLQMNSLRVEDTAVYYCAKGRAAGTFDSWGQGTLVTVSS, the assay gave 670 nM (3 of 3 replicates; controls 0 of 9). For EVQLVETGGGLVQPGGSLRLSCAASGFTLNSYGISWVRQAPGKGPEWVSVIYSDGRRTFYGPSVKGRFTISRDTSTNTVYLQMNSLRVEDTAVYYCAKGRPAGTFDSWGQGTLVTVSS, the assay gave nd (0 of 3 replicates; controls 0 of 9).

The variant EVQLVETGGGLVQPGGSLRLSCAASGFTLNSYGISWVRQAPGKGPEWVSVIYLDGRRLFYGASVKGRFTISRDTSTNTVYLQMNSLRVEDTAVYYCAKGRAAGTFDSWGQGTLVTVSS gave nd (0 of 3 replicates; controls 1 of 9). The variant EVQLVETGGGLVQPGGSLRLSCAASGFTLNSYGISWVRQAPGKGPEWVSVIWSDGRRTFYGHSKKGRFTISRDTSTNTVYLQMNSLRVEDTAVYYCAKGRAAGTFDSWGQGTLVTVSS gave 16 µM (1 of 3 replicates; controls 0 of 9). The variant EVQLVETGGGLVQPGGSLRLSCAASGFWLNSYGISWVRQAPGKGPEWVSVIYSDGRRTFYGGSVKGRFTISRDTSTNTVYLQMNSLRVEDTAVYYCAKGRMAGTFDSWGQGTLVTVSS showed 830 nM (3 of 3 replicates; controls 0 of 9). The variant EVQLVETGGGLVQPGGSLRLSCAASGFTLNSYGISWVRQAPGKGPEWVSVIYSDGRRTFYGEPVKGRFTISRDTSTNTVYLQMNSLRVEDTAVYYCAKGAAAGTFDSWGQGTLVTVSS showed 9.9 nM (3 of 3 replicates; controls 0 of 9). The variant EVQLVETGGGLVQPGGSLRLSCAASGFTLNSYGISWVRQAPGKGPEWVSVIYSFGRRTFYLISVKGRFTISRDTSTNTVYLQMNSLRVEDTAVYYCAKGRAAGTFDSWGQGTLVTVSS gave nd (0 of 3 replicates; controls 1 of 9). With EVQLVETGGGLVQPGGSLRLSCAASGFTLNSYGISWVRQAPGKGPEWVSVIYSDGRRTFYGHSGCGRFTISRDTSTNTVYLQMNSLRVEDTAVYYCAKGRAAGTFDSWGQGTLVTVSS the result was nd (0 of 3 replicates; controls 4 of 9). The variant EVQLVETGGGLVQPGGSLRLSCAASGFTRNEYGISWVRQAPGKGPEWVSVIYSDGRRTFYGLSVKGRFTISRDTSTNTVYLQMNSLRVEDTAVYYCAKGRAAGTFDSWGQGTLVTVSS gave 6.4 µM (1 of 3 replicates; controls 2 of 9).

The 3 strongest on average among those seen in every replicate, once more:

Variant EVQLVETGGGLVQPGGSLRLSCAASGFTLNSYGISWVRQAPGKGPEWVSVIYSDGRRTFYGEPVKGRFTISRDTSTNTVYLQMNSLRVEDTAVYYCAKGAAAGTFDSWGQGTLVTVSS showed 9.9 nM (3 of 3 replicates; controls 0 of 9).
Variant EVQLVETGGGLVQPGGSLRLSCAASGFTLNEYGISWVRQAPGKGPEWVSVIYSDGRRTFYGHSVKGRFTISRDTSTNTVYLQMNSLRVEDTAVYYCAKGRAAGTLDSWGQGTLVTVSS showed 18 nM (3 of 3 replicates; controls 2 of 9).
Variant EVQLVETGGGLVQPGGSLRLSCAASGFTLNSYGISWVRQAPGKGPEWVSVIYSDGRRTQYGISVQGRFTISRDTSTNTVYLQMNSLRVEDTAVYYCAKGRAAGTFDSWGQGTLVTVSS showed 670 nM (3 of 3 replicates; controls 0 of 9).